Bioassay records as filed in PubChem BioAssay.
S100A4 inh HTS = blocks human S100A4 binding to myosin IIA peptide; inhibition, % at 10.7 µM; P26447; S100A4/TAMRA-MyoIIA peptide fluorescence polarization; 360,000 compounds, 0.14% hits; AID 652163;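 active = mean inhibition of at least 70% across replicates, with every replicate also reaching that level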
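incubation = readout 5 min after mixing, signal stable up to 60 min | system = S100A4 monomer protein | buffer or medium = HEPES pH 7.2 with CaCl2, KCl, NaCl, DTT, Triton | benchmarks = neutral control DMSO, positive control TFP | also added = fluorescent myosin IIA peptide, 5 nM | compound dosing = one concentration per compound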
Yeast UUG start = modulators of yeast start codon fidelity, primary screen, whole organism, S. cerevisiae, single point, plate reader; S. cerevisiae UUG-firefly luciferase reporter, luminescence/redox ratio; activity score, % at 18.7 µM; actives 0.13% (n = 350,000); AID 602363, 2012;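 active = replicate mean at a twofold rise or more, about +100% in these data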;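 also: firefly luciferase made from a UUG start codon reports start codon fidelity; reporter light over untreated wells divided by growth signal over untreated wells; some hits fall short of that in this replicate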
ERAP1 inh = blocks human ERAP1 aminopeptidase activity; Q9NZ08; recombinant ERAP1, Leu-AMC fluorescence, 60 min; inhibition, % at 10.7 µM; 340,000 compounds, 0.15% hits; AID 652197;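 active = mean replicate inhibition of at least 30%, or all replicates individually reaching that 30% level; inactive = mean below 30% and not every replicate reaching it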;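 also: 0% = neutral control wells and 100% = L-leucinethiol positive control wells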
ARNT TACC3 PPI = ARNT/TACC3 interaction disruption; inhibition, % at 9.99 µM; AID 623870; Q9Y6A5; 390,000 compounds, 0.66% hits; AlphaScreen His-ARNT PAS-B/GST-TACC3 binding, luminescence; TACC3 fragment carries E629A point mutation;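 active = mean inhibition of replicates at least 50% and at least half of replicates each reaching 50%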;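 also: 0% = complete ARNT plus TACC3 wells and 100% = ARNT alone without TACC3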
E-sel inducer = E-selectin induction on HUVECs; 260,000 compounds, 0.37% hits; P16581; HUVEC E-selectin immunofluorescence imaging; normalized: neutral wells 0, TNF-alpha wells 100; activation, % at 7.58 µM;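 active = mean E-selectin-positive cell signal at least 10% of the positive control, reached in at least 60% of replicates, without over 20% cell loss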
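Test system: HUVEC; input: 3,000 HUVEC/well; measured by: immunofluorescence imaging; read-out: % PE-positive cells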
MLL AF4-AF9 inh = inhibitors of human MLL-AF4/AF9 interaction; inhibition, % at 10 µM; 350,000 compounds, 0.47% hits; AlphaScreen, biotin-AF4 peptide binding to FLAG-AF9; AID 651704;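 active = every replicate reaching a set inhibition limit, whatever the replicate mean, cut at about 25% in these data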;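 also: 0% = plate neutral control median and 100% = total signal loss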
AlphaScreen ctr = counter-screen for ARNT/TACC3 inhibitors: AlphaScreen artifacts; His-ARNT PASB-GST AlphaScreen artifact counter-screen, luminescence; shares compounds with ARNT TACC3 PPI; AC50, µM (doses to about 68 µM), for inactives: at the highest dose activity change, negative = signal decrease; 1,200 compounds, 50% hits;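 active = every separate test run was called active for a drop in luminescence, with AC50 within twice the top valid dose, actives reach about 71 µM in these data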
Numbers without * were called inactive. A selection: hits, their analogues and other compounds. The true share with any hit is near 1.3%.

`CC(=O)NC(c1ccc(C)cc1)c1cc([N+](=O)[O-])c2cccnc2c1O` (stereo not drawn) gave S100A4 inh HTS -12, ERAP1 inh -2 and MLL AF4-AF9 inh 0.
CCC(=O)NC(c1ccco1)c1cc(Br)c2cccnc2c1O (stereo not drawn) was read as S100A4 inh HTS -4, Yeast UUG start -12, E-sel inducer -1 and MLL AF4-AF9 inh 0.
`Cc1cc(NC(c2ccc(Cl)cc2)c2ccc3cccnc3c2O)no1` (stereo not drawn) gave Yeast UUG start -31, ARNT TACC3 PPI 55* and AlphaScreen ctr 10µM*.
CCCC(=O)NC(c1ccco1)c1cc([N+](=O)[O-])c2cccnc2c1O (stereo not drawn) was read as S100A4 inh HTS 0, ERAP1 inh 1, ARNT TACC3 PPI 59*, MLL AF4-AF9 inh -15 and AlphaScreen ctr 30µM*.
For CCC(=O)NC(c1ccc(C)cc1)c1ccc2cccnc2c1O (stereo not drawn) the results were S100A4 inh HTS -4, Yeast UUG start -20, ERAP1 inh -3, ARNT TACC3 PPI 35*, E-sel inducer 0, MLL AF4-AF9 inh 0 and AlphaScreen ctr 28µM*.
CCC(=O)NC(c1ccc(C)cc1)c1cc([N+](=O)[O-])c2cccnc2c1O (stereo not drawn) was read as Yeast UUG start -16, ARNT TACC3 PPI 58*, E-sel inducer 0 and AlphaScreen ctr 11µM*.
Screening CCC(=O)NC(c1ccc(Cl)cc1Cl)c1ccc2cccnc2c1O (stereo not drawn) returned S100A4 inh HTS 5, Yeast UUG start -30, ERAP1 inh 0, ARNT TACC3 PPI 14, E-sel inducer 0 and MLL AF4-AF9 inh -11.
O=C(N[C@@H]1CC[C@H](CC(=O)N2CCOCC2)O[C@H]1CO)c1ccccn1 was read as S100A4 inh HTS -3, ERAP1 inh 4, ARNT TACC3 PPI 1, E-sel inducer 1 and MLL AF4-AF9 inh 0.
`CC1OC(CC(=O)O)CC2=C1C(=O)c1c(O)cccc1C2=O` (stereo not drawn) gave S100A4 inh HTS -3, ERAP1 inh 9, ARNT TACC3 PPI 33*, E-sel inducer 0, MLL AF4-AF9 inh -2 and AlphaScreen ctr -17%.
`COC(=O)C1=COC(C)C2CN3CCc4c([nH]c5cc(OC)c(OC)cc45)C3CC12` (stereo not drawn) gave S100A4 inh HTS -11, Yeast UUG start -13, ARNT TACC3 PPI 63*, MLL AF4-AF9 inh 16 and AlphaScreen ctr 71µM*.
CN(C)C(=O)C[C@@H]1C[C@@H]2c3cc(NC(=O)CC4CC4)ccc3O[C@@H]2[C@H](CO)O1 was read as S100A4 inh HTS 5, ERAP1 inh -2, ARNT TACC3 PPI -5, E-sel inducer 0 and MLL AF4-AF9 inh -4.
For C[C@@H](Nc1nc(-c2ccccn2)nnc1-c1ccccc1)C1CCCCC1 the results were AlphaScreen ctr 4.3µM*.
C[C@H](Nc1nc(-c2ccccn2)nnc1-c1ccccc1)C1CCCCC1 was read as AlphaScreen ctr 2.6µM*.
`CC(C)Nc1nc(-c2ccccn2)nc(-c2ccccc2)c1C#N` gave S100A4 inh HTS 1, ERAP1 inh 1 and MLL AF4-AF9 inh -3.
For C[C@@H]1CN([C@H](C)CO)C(=O)c2cccc(NC(=O)c3ccncc3)c2O[C@H]1CN(C)Cc1ccc(C(F)(F)F)cc1 the results were S100A4 inh HTS -10, Yeast UUG start -10, ERAP1 inh 0, ARNT TACC3 PPI 1, E-sel inducer 0 and MLL AF4-AF9 inh 2.

Fetched by structure from the entries so far:
C[C@H](Nc1nc(-c2ccccn2)nnc1-c1ccccc1)C1CCCCC1 was read as AlphaScreen ctr 2.6µM*.
CCC(=O)NC(c1ccc(C)cc1)c1cc([N+](=O)[O-])c2cccnc2c1O (stereo not drawn) was read as Yeast UUG start -16, ARNT TACC3 PPI 58*, E-sel inducer 0 and AlphaScreen ctr 11µM*.
Screening CCC(=O)NC(c1ccc(Cl)cc1Cl)c1ccc2cccnc2c1O (stereo not drawn) returned S100A4 inh HTS 5, Yeast UUG start -30, ERAP1 inh 0, ARNT TACC3 PPI 14, E-sel inducer 0 and MLL AF4-AF9 inh -11.

The results go on.
`COc1ccc(CN(C)C[C@H]2Oc3ccc(NS(=O)(=O)c4ccc(OC)cc4)cc3CC(=O)N([C@@H](C)CO)C[C@@H]2C)cc1` gave S100A4 inh HTS -8, Yeast UUG start -12, ERAP1 inh -2, ARNT TACC3 PPI 2, E-sel inducer 0 and MLL AF4-AF9 inh 4.
For Oc1c(C(Nc2ccccn2)c2ccccn2)ccc2cccnc12 (stereo not drawn) the results were S100A4 inh HTS 2, Yeast UUG start -40 and ERAP1 inh 9.
Screening Oc1ccccc1C(Nc1nccs1)c1ccc2cccnc2c1O (stereo not drawn) returned S100A4 inh HTS -3, Yeast UUG start -38, ERAP1 inh 0, ARNT TACC3 PPI 61*, E-sel inducer 0, MLL AF4-AF9 inh 8 and AlphaScreen ctr 12µM*.
For COc1cccc(/C=N/NC(=O)C(=O)NCc2cccnc2)c1O the results were Yeast UUG start -13 and ARNT TACC3 PPI 21.
`COc1ccc([N+](=O)[O-])cc1/C=N/NC(=O)CNC(=O)C(c1ccccc1)c1ccccc1` gave Yeast UUG start -12 and ARNT TACC3 PPI -10.
For COc1cccc(/C=N/NC(=O)CNC(=O)c2cccnc2)c1O the results were S100A4 inh HTS -4, Yeast UUG start -8, ERAP1 inh -3, ARNT TACC3 PPI 59*, E-sel inducer 1, MLL AF4-AF9 inh -2 and AlphaScreen ctr 2%.
COc1cccc(/C=N/NC(=O)CNC(=O)c2ccc3c(c2)OCCO3)c1O was read as Yeast UUG start -3 and ARNT TACC3 PPI 13.
For COc1cccc(/C=N/NC(=O)CNC(=O)c2ccncc2)c1O the results were S100A4 inh HTS 0, Yeast UUG start -16, ERAP1 inh -1, ARNT TACC3 PPI 56*, MLL AF4-AF9 inh -6 and AlphaScreen ctr -12%.
Screening COc1ccc([N+](=O)[O-])cc1/C=N/NC(=O)CNC(=O)c1cccc(F)c1 returned S100A4 inh HTS 12, Yeast UUG start -12, ERAP1 inh 4, ARNT TACC3 PPI 51*, MLL AF4-AF9 inh 9 and AlphaScreen ctr -12%.
CC(C)NC(=O)N(C)C[C@H]1OCCCC[C@H](C)Oc2ccc(NS(=O)(=O)c3ccccc3)cc2C(=O)N([C@@H](C)CO)C[C@H]1C was read as S100A4 inh HTS 14, Yeast UUG start -5, ERAP1 inh 0, ARNT TACC3 PPI 6, E-sel inducer 0 and MLL AF4-AF9 inh 0.
COc1ccc(Nc2nc(N)nc(CN(C)C3CCCCC3)n2)cc1 was read as Yeast UUG start -15, ARNT TACC3 PPI 56* and AlphaScreen ctr -10%.
CCOc1ccc(Nc2nc(N)nc(CN(C)C3CCCCC3)n2)cc1 was read as Yeast UUG start -25, ARNT TACC3 PPI 63* and AlphaScreen ctr -10%.
